Experimental water solubility values from OPERA 2.9

Data: OPERA 2.9 data sets, kmansouri/OPERA on GitHub.

Solubility in water is on a log10 molar scale (set defined at 25 °C).

log S (log10 mol/L) | structure (SMILES)
-8.1 | O=C1c2ccccc2-c2ccc3c4c(ccc1c24)-c1ccccc1C3=O
-3.27 | CCCCCNCCOC(=O)c1ccc(N)cc1
0.539 | CC(N)CCC(=O)O (racemic)
-0.85 | C=COCC
-1.795 | CC1(C)NC(=O)N(Cc2ccccc2)C1=O
-4.164 | O=C(N/N=C/C=C/c1ccc([N+](=O)[O-])o1)C(Cl)Cl
-3.432 | C[C@@H]1C[C@H]2[C@@H]3C[C@H](F)C4=CC(=O)C=C[C@]4(C)[C@H]3[C@@H](O)C[C@]2(C)[C@@]1(O)C(=O)CO
-1.435 | CC(C)C(C(=O)O)C(C)C(=O)O (stereo not drawn)
0.067 | CCC(=O)C(=O)O
-1.827 | CNc1nc2ncncc2[nH]1
-5.312 | CC(C)C1CCCCC1
-1.06 | C#CC(C)(O)CC(C)C (stereo not drawn)
0.183 | COC(=O)[C@@H](O)[C@@H](O)C(=O)O
-5.348 | COc1cc([N+](=O)[O-])ccc1N=Nc1ccc(N(CCO)CCO)cc1C
-9.24 | CCc1c(Br)c(Br)c(Br)c(Br)c1Br
-2.361 | O=c1cnc2cnc(=O)[nH]c2[nH]1
-3.316 | C/C(=N/NC(=O)c1ccncc1)C(=O)O
-1.916 | CCOC(=O)c1c(C(=O)O)cccc1[N+](=O)[O-]
-2.999 | CCOC(=O)/C(=C\c1ccccc1Cl)N=CO
-1.544 | O=C(O)c1cc2c(cc1C(=O)O)OCO2
-2.326 | Cc1nn(-c2ccccc2)c(=O)[c-]1/N=N/c1cc([N+](=O)[O-])ccc1[O-].Cc1nn(-c2ccccc2)c(=O)[c-]1/N=N/c1cc([N+](=O)[O-])ccc1[O-].[Cr+3].[Na+]
-1.618 | O=c1nc(O)c(F)cn1C(O)=Nc1ccccc1
-0.304 | O=C(Nc1ncccn1)c1cnccn1
-7.965 | COc1cc(NC(=O)C(N=Nc2cc(OC)c(S(=O)(=O)Nc3ccccc3)cc2OC)C(C)=O)c(OC)cc1Cl (stereo not drawn)
0.36 | Cc1ccncc1C
-4.347 | Cc1ccc(C2(O)CCN(CCCC(=O)c3ccc(F)cc3)CC2)cc1
-6.69 | CCCCCCC(=O)Oc1c(Br)cc(C#N)cc1Br
-8.047 | CCN(CC)c1ccc(C(O)(c2ccc(N(CC)CC)cc2)c2ccc(N(CC)CC)cc2)cc1
-5.288 | COC(=O)C1=C(C)NC(C)=C(C(=O)OCCN(C)Cc2ccccc2)C1c1cccc([N+](=O)[O-])c1 (stereo not drawn)
-0.954 | CN1CC(C(=O)O)CC1=O (stereo not drawn)
-2.547 | CSc1ncc2[nH]cnc2n1
-7.582 | CCOc1ccccc1NC(=O)c1cc2ccccc2c(N=Nc2ccc(C(N)=O)cc2)c1O
-1.856 | CCOC(=O)c1ccc(O)c(O)c1
-0.367 | CC(C)=C(C)C(=O)O
-5.81 | Cc1c(Cc2cc(C(C)(C)C)c(O)c(C(C)(C)C)c2)c(C)c(Cc2cc(C(C)(C)C)c(O)c(C(C)(C)C)c2)c(C)c1Cc1cc(C(C)(C)C)c(O)c(C(C)(C)C)c1
-2.69 | COc1cc(/N=N/c2cc(S(=O)(=O)[O-])cc3cc(S(=O)(=O)[O-])cc(O)c23)c(C)cc1NC(=O)Nc1cc(C)c(/N=N/c2cc(S(=O)(=O)[O-])cc3cc(S(=O)(=O)[O-])cc(O)c23)cc1OC.[Na+].[Na+].[Na+].[Na+]
-8.9 | C=CCN(CCC#N)c1cc(NC(C)=O)c(N=Nc2c(Br)cc([N+](=O)[O-])cc2[N+](=O)[O-])cc1OC
-1.481 | NS(=O)(=O)c1ccc(S(=O)(=O)CCCCO)s1
-1.901 | CC(C)(C)[C@@H](NC=O)C(=O)O
-1.297 | CC[C@@H](N)C(=O)N[C@H](CC)C(=O)O
-4.437 | CCCCCCCCCCCO
-2.839 | O=C(O)c1cc(=O)[nH]c2ccccc12
-1.59 | N.N.O=C([O-])CC(C(=O)[O-])C(=O)[O-].[H+].[Pt+2]
-4.063 | O=C(CCCN1CCC(O)(c2ccccc2)CC1)c1ccccc1
-5.158 | O=c1n(CC(Br)CBr)c(=O)n(CC(Br)CBr)c(=O)n1CC(Br)CBr (stereo not drawn)
-0.279 | C[C@]1(CO)[C@H]2CC[C@]1(C)C(=O)C2
-4.18 | CC(=O)OCCC1CCCCC1

The last 7 entries again:

structure (SMILES) | log S (log10 mol/L)
CCCCCCCCCCCO | -4.437
O=C(O)c1cc(=O)[nH]c2ccccc12 | -2.839
N.N.O=C([O-])CC(C(=O)[O-])C(=O)[O-].[H+].[Pt+2] | -1.59
O=C(CCCN1CCC(O)(c2ccccc2)CC1)c1ccccc1 | -4.063
O=c1n(CC(Br)CBr)c(=O)n(CC(Br)CBr)c(=O)n1CC(Br)CBr (stereo not drawn) | -5.158
C[C@]1(CO)[C@H]2CC[C@]1(C)C(=O)C2 | -0.279
CC(=O)OCCC1CCCCC1 | -4.18

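The numbers are reported measurements, compiled and curated for the OPERA QSAR suite. A listed value is a point estimate from one report or more. How each value was measured is not recorded, so precision varies. A value may pool stereoisomers or salt forms, and the file does not say which form was measured. Some upstream entries may be estimates or bounds without being marked so.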